# Source: patent US20160311886A1, “Constructs Binding to Phosphatidylserine and Their Use in Disease Treatment and Imaging” (Board of Regents, The University of Texas System, priority 2005, published 2016)
# Test system: HUVEC
# Test: MTT cytotoxicity assay
# Assay type: cell-based, human
# Description: The biotinylated duramycin construct DLB was prepared as described in Example XV. The unmodified duramycin compound and DLB were tested for cytotoxic effects on HUVEC using an MTT assay.
substance,measurement,value
duramycin,cytotoxic effects on HUVEC,dose-dependent toxicity
